In PubChem BioAssay AID2061166 (Soto Lab, Mitchell Center for Alzheimers Disease and …, 2025) one finds inhibition data, which are given here for 1 compound.

Amino acid sequences for entries named in this document (tags omitted).
UniProt P10636, whole entry, looked up: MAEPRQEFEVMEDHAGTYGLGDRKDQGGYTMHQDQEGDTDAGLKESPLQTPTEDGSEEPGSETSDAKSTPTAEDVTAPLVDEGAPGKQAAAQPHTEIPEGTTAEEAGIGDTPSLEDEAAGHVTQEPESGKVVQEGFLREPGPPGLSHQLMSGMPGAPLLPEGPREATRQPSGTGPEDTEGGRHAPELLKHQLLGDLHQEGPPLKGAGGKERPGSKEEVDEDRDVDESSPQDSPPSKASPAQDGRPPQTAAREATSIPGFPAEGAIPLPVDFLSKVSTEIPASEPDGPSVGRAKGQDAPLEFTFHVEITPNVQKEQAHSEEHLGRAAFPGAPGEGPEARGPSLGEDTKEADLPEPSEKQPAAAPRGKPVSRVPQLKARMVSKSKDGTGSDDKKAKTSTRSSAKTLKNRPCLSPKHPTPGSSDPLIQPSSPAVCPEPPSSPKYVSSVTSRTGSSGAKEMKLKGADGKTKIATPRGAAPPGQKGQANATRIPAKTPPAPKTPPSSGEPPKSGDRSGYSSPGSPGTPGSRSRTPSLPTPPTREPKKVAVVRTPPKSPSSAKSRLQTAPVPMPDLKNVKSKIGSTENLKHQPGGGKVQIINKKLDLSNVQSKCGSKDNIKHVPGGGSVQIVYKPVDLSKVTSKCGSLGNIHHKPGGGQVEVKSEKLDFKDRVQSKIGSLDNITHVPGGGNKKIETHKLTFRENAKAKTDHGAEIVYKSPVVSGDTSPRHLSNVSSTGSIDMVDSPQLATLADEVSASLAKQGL

This is a selection; strong and weak results do not stand in their true shares. Activity calls are given as the source filed them.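 The calls were made as follows: active = mean tau seeding fluorescence area under 1% of vehicle, meaning inhibition above a set limit; inactive = the rest.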

The assay deals with Microtubule-associated protein tau (Homo sapiens) (UniProt P10636). The assay can be described thus: inhibitors of seeded tau aggregation, primary screen, biochemical, seed amplification, ThT fluorescence (AID 2061166). The conditions noted are these: Recombinant tau seeded by AD brain, ThT fluorescence AUC; at 100 µM; hits give high values.

Consider `CC1=C2N=C(C=C3N=C(C(C)=C4[N-]C(C(CC(N)=O)C4(C)CCC(=O)NCC(C)OP(=O)([O-])OC4C(CO)OC(n5cnc6cc(C)c(C)cc65)C4O)C4(C)N=C1C(CCC(N)=O)C4(C)CC(N)=O)C(CCC(N)=O)C3(C)C)C(CCC(N)=O)C2(C)CC(N)=O.[C-]#N.[Co+3]` (stereo unspecified), for which the inhibition is inactive: -42.3%.

Broadly, the inhibition is the drop in the measured response relative to a control, in per cent.
